Bioassay records as filed in PubChem BioAssay.
Hits are enriched below; roughly 2.1% of the tested compounds scored in any of these assays.
PDI inh: inhibitors of human PDI, primary screen, biochemical, turbidity, single point, plate reader. PDI insulin aggregation turbidity, A650, 90 min. inhibition, % at 10 µM. hit rate 0.052% among 350,000. AID 588391, 2011;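 active = mean inhibition across replicates of 30% or more, whatever share of single replicates reach that level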
GSIS activator: GLuc luminescence reporter in INS-1E cells, primary screen for activators of glucose-dependent secretion of insulin; INS-1E GLuc reporter insulin secretion, 2-3 h; activation, % at 16.6 µM; hit rate 0.61% among 370,000;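 active = lowest replicate activation of at least 40%, so every replicate reaches that level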;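 note: 0% = median of neutral control wells and 100% = median of IBMX positive control wells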
Rev-erbA mod: modulators of Rev-erb alpha DNA binding, primary screen, biochemical, FITC-DNA, fluorescence polarization, uHTS. Nuclear receptor subfamily 1 group D member 1 (Homo sapiens), P20393. Rev-erbα–FITC-DNA binding, 90 min. hit rate 0.79% among 370,000. activity, % at 10 µM;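 active = activity above about 14%, limit read from the data; passing the limit was not always enough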;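 note: 0% = DMSO wells with 35 nM protein and 100% = DMSO wells with 750 nM protein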
Yeast UUG start: alters start codon recognition fidelity in yeast. S. cerevisiae UUG-firefly luciferase reporter, luminescence/redox ratio. activity score, % at 18.7 µM. 0.13% of 350,000 active. AID 602363;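 active = replicate mean at a twofold rise or more, about +100% in these data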;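 also: firefly luciferase made from a UUG start codon reports start codon fidelity; reporter light over untreated wells divided by growth signal over untreated wells; some hits fall short of that in this replicate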
SMARCA2 activ: SMARCA2 (BRM) function activators, primary screen, cell-based, luminescence, high throughput. AID 652017, 2013. activation, % at 9.1 µM. MG213 cells, MMTV-luciferase reporter, dexamethasone, overnight. hit rate 1% among 370,000; in the data active = activation above about 7.8%;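 note: 0% = vehicle wells and 100% = reference activator wells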
ERp5 block: inhibitors of ERp5-driven insulin aggregation, primary screen, biochemical, turbidity, absorbance 650 nm, single point | 90 min | inhibition, % at 9.99 µM | Protein disulfide-isomerase A6 (Homo sapiens), Q15084 | hit rate 0.05% among 350,000;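 active = mean replicate inhibition above about 25%, with every replicate also reaching it, limit read from the data, passing the limit was not always enough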
* hit, by the source's call.

For C/C(=N\NC(=O)c1ccc(Cl)c(Cl)c1)c1ccc(Br)s1 the results were PDI inh -22, GSIS activator 102*, Rev-erbA mod -5 and SMARCA2 activ -1.
`CNc1nc(N)c(C(=O)C(C)(C)C)s1` gave PDI inh 1, GSIS activator 47*, Rev-erbA mod -5, SMARCA2 activ 4 and ERp5 block 3.
`C[C@@H]1CN([C@H](C)CO)C(=O)c2cc(NC(=O)CCC(F)(F)F)ccc2O[C@@H](C)CCCCO[C@@H]1CN(C)Cc1ccc(C(F)(F)F)cc1` gave GSIS activator -16, Yeast UUG start 8 and ERp5 block -6.
For Fc1cccc(Cc2c(-c3ccco3)nc3ccc(Br)cn23)c1 the results were GSIS activator 76, Rev-erbA mod -3, Yeast UUG start -5, SMARCA2 activ 6 and ERp5 block -6.
Cc1cc(Br)cn2c(Cc3cccc(F)c3)c(-c3ccco3)nc12 was read as GSIS activator 66*, Rev-erbA mod -5, SMARCA2 activ 2 and ERp5 block -5.
For O=C(COC(=O)c1ccccc1NC(=O)c1ccccc1)c1ccc([N+](=O)[O-])cc1 the results were PDI inh 0, Rev-erbA mod 2, Yeast UUG start -17 and SMARCA2 activ -2.
For O=C(Nc1ccc([N+](=O)[O-])cc1NC(=O)c1ccccc1)c1ccccc1 the results were PDI inh -3, GSIS activator 85*, Rev-erbA mod -1, Yeast UUG start -5, SMARCA2 activ -1 and ERp5 block 4.
`O=C(COC(=O)c1ccccc1NC(=O)c1ccccc1)c1cccc([N+](=O)[O-])c1` gave PDI inh -9, GSIS activator 69*, Rev-erbA mod 1 and SMARCA2 activ 0.
CCOC(=O)C(=O)Nc1nnc(CCc2ccccc2)s1 was read as PDI inh 0, Rev-erbA mod 2, Yeast UUG start -20 and SMARCA2 activ 7.8*.
Screening Cc1cccc(NC(=O)Nc2ccc3c(c2)C(=O)N(C)[C@@H]2CC[C@@H](CC(=O)NCc4ccccc4Cl)O[C@@H]2CO3)c1 returned GSIS activator -7 and ERp5 block 3.

Molecules listed so far with a furan ring, fused or not (2):
For Fc1cccc(Cc2c(-c3ccco3)nc3ccc(Br)cn23)c1 the results were GSIS activator 76, Rev-erbA mod -3, Yeast UUG start -5, SMARCA2 activ 6 and ERp5 block -6.
Cc1cc(Br)cn2c(Cc3cccc(F)c3)c(-c3ccco3)nc12 was read as GSIS activator 66*, Rev-erbA mod -5, SMARCA2 activ 2 and ERp5 block -5.

(continued)
For CS(=O)(=O)N1CCN(c2ccccc2NC(=O)c2ccc(Br)o2)CC1 the results were PDI inh -3, GSIS activator 3, Rev-erbA mod -2, Yeast UUG start -11, SMARCA2 activ 0 and ERp5 block -8.
Screening CS(=O)(=O)N1CCN(c2ccccc2NC(=O)c2ccco2)CC1 returned PDI inh 5, GSIS activator 42*, Rev-erbA mod -2, Yeast UUG start -10, SMARCA2 activ -3 and ERp5 block -4.
For CCC(C)Nc1nc(N)c([N+](=O)[O-])c(NCCO)n1 (stereo not drawn) the results were PDI inh 2, GSIS activator 71*, Rev-erbA mod 1, SMARCA2 activ -1 and ERp5 block 2.
For Cc1cccc2nc(-c3cccc(NC(=O)Cc4ccccc4)c3)cn12 the results were PDI inh -21, GSIS activator -5, Rev-erbA mod -1, Yeast UUG start -3, SMARCA2 activ 13* and ERp5 block 1.
For COc1ccc(-c2cc3cc(OC)c(OC)cc3cn2)cc1OC the results were PDI inh 7, GSIS activator 7, Rev-erbA mod -4, SMARCA2 activ 5 and ERp5 block 2.
Screening COc1cc2cnc(-c3cccnc3)cc2cc1OC returned PDI inh -9, GSIS activator 62*, Rev-erbA mod 0, Yeast UUG start 6, SMARCA2 activ 3 and ERp5 block -2.
Screening CC(=O)OCC(=O)[C@@]1(O)CCC2C3CCC4=CC(=O)C=C[C@]4(C)[C@@]3(Cl)[C@@H](Cl)C[C@@]21C (stereo partly drawn) returned Rev-erbA mod -3.
`O=[N+]([O-])c1cccc(-c2nc(-c3ccccc3)c(-c3cccs3)[nH]2)c1` gave PDI inh -2, GSIS activator 48*, Rev-erbA mod 3, Yeast UUG start -21 and SMARCA2 activ -3.
